Measurements taken from patent US20240299568A1, “BONE-SPECIFIC DELIVERY OF POLYPEPTIDES” (William Marsh Rice University, priority 2021, published 2024).

Legend:
[1] = Native bone binding assay; set-up: species or system mice; conditions: did not change significantly with longer incubation
[2] = single dose 1 mg/kg retro-orbital; serum for 7 days
[3] = system: MCF-7 (HER2-, ER+) cancer cells; experiment: MCF-7 HER2-negative bone micrometastasis model (IIA injection); conditions: ex vivo at day 68; 1 mg/kg
HA binding assay = conditions: did not change significantly with longer incubation
MDA-MB-468 cells = experiment: In vitro cytotoxicity (MTT); assay type: cell-based; conditions: MDA-MB-468 (Her2 0), 4 d
Method: SK-BR-3, BT474, and MDA-MB-468 cells were seeded in 200 μL of culture medium into 96-well plates at a density of 2×10^3 cells/well and incubated overnight to allow attachment. […] 20 μL of MTT solution (5 mg/mL) was then added to each well and incubated for another 4 h. Medium was aspirated and 150 μL DMSO was added to each well. The absorbance at 570 nm was measured by microplate reader (Infinite M Plex by Tecan) to quantify living cells.

[4] = Binding to bone cryosections; set-up: species or system C57BL/6 mice; conditions: 50 μg/mL overnight at 4° C.; xylenol orange counterstain
Method: Enhanced Targeting of the Bone Metastatic Niche by Tras-ALN in vitro and in vivo. Next, the ability of the Tras-ALN conjugate to target bone tissue was explored. […] Before imaging via confocal laser scanning microscopy, these bone sections were further stained for 30 min with 4 μg/mL xylenol orange (XO, known to label bone). […] Furthermore, localization of the Tras-ALN signal correlated well with the XO signal, confirming the specific targeting of bone by Tras-ALN.
Binding to bone cryosections. […] After washing 3 times with PBS, specimens were incubated for 30 min at 37° C. with Xylenol Orange (XO) (stock: 2 mg/ml, dilute 1:500, dilute buffer: PBS pH 6.5). After three washes with PBS, specimens were stained with Hoechst 33342 (stock 10 mg/ml, dilute 1:2000) for 10 min. Slides were then washed with PBS, air dried, and sealed with Prolong™ gold anti-fade mountant (from ThermoFisher).

[5] = mouse, 1 mg/kg

Substance | binding to native bone [1] | serum concentration over time, Tras versus Tras-ALN [2] | metastatic cells observed, liver [3] | metastatic cells observed, lung [3] | metastatic cells observed, right hind limb [3] | binding to HA (HA binding assay) | IC50 (MDA-MB-468 cells) | FITC signal (anti-human IgG) on non-decalcified bone sections [4] | FITC (anti-human IgG) signal in bone sections after in vivo dosing [5]
trastuzumab | only slight binding | did not show significant differences | 33.4% | 83.4% | 83.4% | only slight binding | >500 µg/mL | not in sections stained with unmodified Tras | –
Tras-ALN: trastuzumab site-specifically coupled by pClick (azide moiety reacted with BCN-functionalized ALN) to the bisphosphonate Alendronate | – | – | – | – | – | – | >500 µg/mL | FITC signal was observed | FITC signals were only observed in sections from the right leg harboring MDA-MB-361 tumors
